Assay results: article PMC10199079

B1: PD-1: 4NQ (N49Q/N58Q/N74Q/N116Q) (protein)
parent chain: MQIPQAPWPVVWAVLQLGWRPGWFLDSPDRPWNPPTFSPALLVVTEGDNATFTCSFSNTSESFVLNWYRMSPSNQTDKLAAFPEDRSQPGQDCRFRVTQLPNGRDFHMSVVRARRNDSGTYLCGAISLAPKAQIKESLRAELRVTERRAEVPTAHPSPSPRPAGQFQTLVVGVVGGLLGSLVLLVWVLAVICSRAARGTIGARRTGQPLKEDPSAVPVFSVDYGELDFQWREKTPEPPVPCVPEQTEYATIVFPSGMGTSSPARRGSADGPRSAQPLRPEDGHCSWPL
B2: PD-1: tunicamycin (protein)
parent chain: B1 parent chain

Experiment: immunoblot with anti-pT234-PD-1 antibody
Conditions: glycan lost

| Protein | other: phosphorylation at T234 (control: wild type) | other: phosphorylation at T234 (control: untreated) |
| --- | --- | --- |
| B1 | no change |  |
| B2 |  | no change |
